Screening results deposited in PubChem by National Center for Advancing Translational Sciences (NCATS).
Apoferritin bind: candidate novel general anesthetic via apoferritin binding; apoferritin/1-aminoanthracene competitive binding, fluorescence; Potency, µM (top dose mostly 77.5 µM), for the others: top-dose activity change, negative = displacement, actives largely listed as inhibitors; actives 0.074% (n = 350,000); further: potency means the concentration at half of the fitted maximal effect; on the % scale 0 is the no-effect control and ±100 the full control effect; nearly all actives have a fitted effect of over 20% in size
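Concentration-response curves derived by four-parameter Hill fitting of normalized fluorescence, where compounds displaced 1-AMA from 10 uM horse apoferritin following a brief 10 min room-temperature incubation; propofol titration acted as positive control.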
rTrxR1 inhibitor: blocks rat thioredoxin reductase 1 | recombinant rTrxR1, NADPH fluorescence consumption, selenite substrate | O89049 | Potency, µM (highest dose often 114 µM), for inactives: at the top dose activity change, negative = inhibition, hits mostly inhibitors | actives 1% (n = 390,000); further: potency means the concentration at half of the fitted maximal effect; on the % scale 0 is the no-effect control and ±100 the full control effect; nearly all actives have a fitted effect of over 65% in size
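Rat TrxR1 (90 nM in the dispensed reagent) was pre-reduced with 400 uM NADPH for 5 min at room temperature, then incubated with compound for 15 min. After 400 uM selenite was added, NADPH fluorescence (Ex 340/Em 450 nm) was followed for 8 min.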
ClpP mod: qHTS Assay for Activators of ClpP. actives 1.9% (n = 340,000). AID 651965, 2013. ATP-dependent Clp protease proteolytic subunit (Bacillus subtilis (strain 168)), P80244. Potency, µM (highest dose often 57.5 µM), for the others: at the highest dose activity change, negative = active. purified B. subtilis ClpP, FRET peptide cleavage, 20 min; active means well fitted falling curve with a large enough effect; inconclusive means small, poorly fitted or top-dose-only effect; inactive means no such curve, though single readings can be large or run the other way; further: potency means the concentration at half of the fitted maximal effect; the source files actives as falling curves though it sought activators and does not explain the sign; nearly all actives have a fitted effect of over 65% in size
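ClpP 10 microg/mL final, pH 8 Tris/KCl buffer with BSA, glycerol, Tween-20; compound pinned in; FRET-FV substrate; RT 20 min; Ex320/Em430; ΔFRET vs ADEP 5.8 microM, DMSO, no enzyme.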
miR-21 reporter: raises the signal of a miR-21 reporter | HeLa miR-21 FLuc reporter, luciferase, 48 h | Potency, µM (highest dose often 38.3 µM), inactives show at the highest dose reporter change, positive = more light | 340,000 tested, under 10 active | AID 2288; active = well fitted rising curve with a large enough effect; inconclusive = small, poorly fitted or top-dose-only effect; inactive = no such curve, though single readings can be large or run the other way;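 note: % of control where 0% means no effect; miR-21 action dims this reporter so a rising signal means less miR-21 action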
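HeLa cells stably expressing CMV-driven firefly luciferase with a downstream miR-21 binding sequence, endogenously expressing miR-21, were treated with titrations (up to about 40uM final) for 48 hours at 37 degree Celsius. Luciferase luminescence was read after lysis.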
TrxR1 substrate: rat thioredoxin reductase 1 substrate activity. O89049. purified TrxR1 substrate turnover, NADPH consumption readout. Potency, µM (top dose mostly 114 µM), for inactives: at the highest dose activity change, negative = substrate turnover. actives 0.01% (n = 390,000). AID 588456; further: potency means the concentration at half of the fitted maximal effect; on the % scale 0 is the no-effect control and ±100 the full control effect; nearly all actives have a fitted effect of over 50% in size
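Rat TrxR1, dispensed at 90 nM, was prereduced with 400 uM NADPH (final) for 5 min at ~22 deg C, then incubated with compound 15 min before 400 uM selenite. A first-read NADPH fluorescence drop versus no-compound background flagged substrates.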
Active calls of the source: *; ? = inconclusive; nt = no result given; [ ] = another dose, or the depositor's remark. Only some compounds are listed: those with a hit (about 2.5% of all), similar ones and a draw of the others. Unless noted, the call rests on the fitted dose curve; in most records, active means well fitted curve in the direction sought with a large enough effect; inconclusive means small, poorly fitted or top-dose-only effect, or another doubt; inactive means no such curve, though single readings can be large; an effect the other way counts as inactive or inconclusive.

Chains of the proteins cited; added tags and fusions are not shown.
ATP-dependent Clp protease proteolytic subunit (Bacillus subtilis (strain 168)), P80244, UniProt P80244, whole entry, looked up: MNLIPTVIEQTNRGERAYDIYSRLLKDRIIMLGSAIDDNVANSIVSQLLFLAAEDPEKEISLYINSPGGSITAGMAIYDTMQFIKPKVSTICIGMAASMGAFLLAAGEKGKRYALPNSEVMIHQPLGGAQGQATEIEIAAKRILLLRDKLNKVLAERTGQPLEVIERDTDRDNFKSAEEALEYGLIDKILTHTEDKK

SMILES	Apoferritin bind	rTrxR1 inhibitor	ClpP mod	miR-21 reporter	TrxR1 substrate
O=C(Cc1cc(=O)[nH][nH]1)N/N=C/c1c(Cl)cccc1Cl	-12%	45µM*	-1%	-6%	-7%
O=c1c(Cl)cc(Cl)nn1-c1ccccc1	-5%	25µM*	-1%	?	-5%
O=C(NCC(=O)N1CCN(c2ncccn2)CC1)c1ccc(F)cc1	nt	3%	14µM*	nt	5%
COc1ccc(-n2nc(C(=O)N3CCC(C)CC3)c3c4ccccc4n(C)c3c2=O)cc1Cl	-9%	-4%	-14%	-1%	-4%
N#Cc1ccccc1NC(=O)Nc1cccc(Cl)c1	6%	-6%[57.1 µM]	28µM*	-6%	7%[57.1 µM]
COc1cc2c(cc1OC)CN(C(=O)CSc1ccccc1C)CC2	nt	35%	22µM*	nt	5%
COc1cc2c(cc1OC)CN(C(=O)c1sccc1C)CC2	4%	9%[57.1 µM]	28µM*	-1%	7%[57.1 µM]
COc1cc2c(cc1OC)CN(C(=O)CSC1=NCCS1)CC2	nt	nt	-5%	nt	nt
CC(=O)c1cc(-c2ccc(F)cc2)n(CC(=O)NCc2ccc(C)cc2)c1C	-12%	26%[57.1 µM]	-7%	9%	4%[57.1 µM]
O=C(NCCc1ccc(F)cc1)C(=O)NCC(c1cccs1)S(=O)(=O)c1ccc(F)cc1 (stereo not drawn)	-13%	10%[57.1 µM]	0%	23%	-1%[57.1 µM]

Compound profiles, as listed above. Order of screens: Apoferritin bind, rTrxR1 inhibitor, ClpP mod, miR-21 reporter, TrxR1 substrate
COc1ccc(-n2nc(C(=O)N3CCC(C)CC3)c3c4ccccc4n(C)c3c2=O)cc1Cl across the screens: -9%, -4%, -14%, -1%, -4%
CC(=O)c1cc(-c2ccc(F)cc2)n(CC(=O)NCc2ccc(C)cc2)c1C across the screens: -12%, 26%[57.1 µM], -7%, 9%, 4%[57.1 µM]
O=C(NCCc1ccc(F)cc1)C(=O)NCC(c1cccs1)S(=O)(=O)c1ccc(F)cc1 (stereo not drawn) across the screens: -13%, 10%[57.1 µM], 0%, 23%, -1%[57.1 µM]
O=c1c(Cl)cc(Cl)nn1-c1ccccc1 across the screens: -5%, 25µM*, -1%, ?, -5%

New compounds follow:
SMILES	Apoferritin bind	rTrxR1 inhibitor	ClpP mod	miR-21 reporter	TrxR1 substrate
COC(=O)c1ccc2c(=O)n(CCCCCC(=O)NCCc3ccc(Cl)cc3)c(=O)[nH]c2c1	-6%	2%[57.1 µM]	-3%	0%	-2%[57.1 µM]
O=C(Nc1ccc(S(=O)(=O)NCc2ccccc2)cc1)C1CCCCC1	-1%	7%	25µM*	-3%	-2%
CC(=O)Nc1ccc(S(=O)(=O)NCC2CCC(C(=O)NCc3ccccc3)CC2)cc1 (stereo not drawn)	4%	24%	2%	-6%	-1%
Cc1ccc(S(=O)(=O)NCC(=O)N(CCc2ccccc2)CC(=O)NCc2ccco2)cc1	-17%	22µM*	-5%	6%	2%
O=S(=O)(NCc1ccccc1)c1ccc(NC(=S)NCc2ccco2)cc1	8.9µM*	-20%	-1%	16%	-6%
CC(=O)Nc1ccc(S(=O)(=O)NCCC(=O)N2CCC(Cc3ccccc3)CC2)cc1	nt	6%	11µM*	nt	-5%
Cc1ccc(C2c3[nH]c4ccccc4c3CCN2C(=O)CCc2ccccc2)cc1 (stereo not drawn)	43%	36%[57.1 µM]	-7%	22%	-1%[57.1 µM]
Cc1ccc(C2CC(=O)N(Cc3ccc(F)cc3)c3c2c(C)nn3-c2nc(C)cc(C)n2)cc1 (stereo not drawn)	-14%	11%	0%	0%	-9%
COC(=O)Cc1[nH]nc2c1C(c1cccc(OC)c1OC)C(C#N)=C(N)O2 (stereo not drawn)	-7%	-4%[57.1 µM]	28µM*	3%	5%[57.1 µM]
CCOP(=O)(OCC)C(C#N)=C1SCN(c2ccc(Cl)cc2)CS1	0%	13µM*	-1%	-5%	-8%

Single entries from above:
In rTrxR1 inhibitor, `Cc1ccc(S(=O)(=O)NCC(=O)N(CCc2ccccc2)CC(=O)NCc2ccco2)cc1` reads 22µM*
In ClpP mod, `O=S(=O)(NCc1ccccc1)c1ccc(NC(=S)NCc2ccco2)cc1` reads -1%
In rTrxR1 inhibitor, `CC(=O)Nc1ccc(S(=O)(=O)NCCC(=O)N2CCC(Cc3ccccc3)CC2)cc1` reads 6%

Remaining list, next part
SMILES	Apoferritin bind	rTrxR1 inhibitor	ClpP mod	miR-21 reporter	TrxR1 substrate
CCOC(=O)c1[nH]c(C)c(CCC(=O)N2CCN(c3ccc(Cl)cc3)CC2)c1C	-14%	16%[57.1 µM]	0%	11%	1%[57.1 µM]
Cc1cc(C)cc(OC(C)c2ccnc3nc(/N=C/N(C)C)nn23)c1 (stereo not drawn)	-20%	-5%	28µM*	-20%	45%
CC(Oc1ccccc1)c1ccnc2nc(/N=C/N(C)C)nn12 (stereo not drawn)	-5%	9%	28µM*	-17%	48%
Cc1cc(OCC(=O)NNC(=O)c2ccncc2)ccc1C(C)C	nt	13%	4µM*	nt	3%
CSc1ccc(C2Nc3cccc4cccc(c34)N2)cc1	-9%	?	-3%	-3%	-8%
Clc1ccc(C2Nc3cccc4cccc(c34)N2)cc1	9%	35µM*	nt	-3%	5%
Brc1ccc(C2Nc3cccc4cccc(c34)N2)s1	-11%	5µM*	-1%	-7%	-4%
COc1cccc(C(=O)Nc2cccc(C(=O)OCc3cc(=O)n4nc(C5CC5)sc4n3)c2)c1	5%	12%[57.1 µM]	-1%	-8%	-1%[57.1 µM]
CCc1ccc2c(Cl)c(C(=O)N/N=C/c3c[nH]c4ccccc34)sc2c1	-1%	9%[57.1 µM]	25µM*	-12%	-9%
CN(C)c1ccc(/C=N/NC(=S)NCc2ccccc2)cc1	871%	-28%	18µM*	-39%	10%[57.1 µM]
Cc1c(NC(=S)N/N=C/c2ccc(N(C)C)cc2)c(=O)n(-c2ccccc2)n1C	77%	?	32µM*	-2%	141%
Cc1ccccc1N(CC(=O)N/N=C/c1ccccc1Cl)C(=O)c1ccccc1	-15%	33%[57.1 µM]	0%	-3%	3%[57.1 µM]
CCN(CC)c1ccc(/C=N/NC(=S)NCc2ccco2)cc1	950%	-24%	16µM*	18%	11%[57.1 µM]
Oc1ccc(/C=N/NC(=S)NCc2ccco2)cc1	-10%	-11%	-6%	-17%	-7%
Cc1ccccc1N(CC(=O)N/N=C/c1ccc(N(C)C)cc1)C(=O)c1ccccc1	-13%	67%[57.1 µM]	35µM*	-4%	40%[57.1 µM]
Cc1c(NC(=S)N/N=C/c2cccc(O)c2)c(=O)n(-c2ccccc2)n1C	-8%	-8%	0%	-5%	-8%
Cc1ccc(-c2cc3c(N4CCN(c5cc(C)ccc5C)CC4)nccn3n2)cc1	-12%	29%	-19%	1%	-1%
COc1cccc(NC(=O)COc2ccccc2C(=O)Nc2ccccc2)c1	nt	0%	3%	nt	-7%
CCn1c2ccccc2c2cc(/C=N/NC(=O)c3ccccc3)ccc21	251%	79%	22µM*	17%	107%
COc1cc(C=NNC(=O)c2ccccc2-n2cccc2)ccc1O	nt	-5%	20µM*	nt	-7%
COc1cc(C(=O)N/N=C/c2ccc3c(c2)c2ccccc2n3C)ccc1O	161%	13%	28µM*	15%	54%
CCCCNC(=O)C(CC)Sc1nnc(-c2ccc(F)cc2)c(-c2ccc(F)cc2)n1 (stereo not drawn)	?	3%[57.1 µM]	?	15%	-4%[57.1 µM]
COc1ccccc1N1CCN(C(=O)Cn2cnc3onc(-c4ccc(F)cc4)c3c2=O)CC1	-15%	22%	-2%	-2%	-5%
Cc1ccc(NC(=O)CSc2nc3nccnc3c(=O)n2CCc2c[nH]c3ccccc23)cc1	40%	0%	-4%	-1%	-5%
CCC(C)NC(=O)c1cn(CC)c2ccc(S(=O)(=O)N3CCc4ccccc4C3)cc2c1=O (stereo not drawn)	?	18%	-1%	14%	-5%
COc1ccc(CCNC(=O)CS(=O)Cc2nc(-c3ccccc3Cl)oc2C)cc1OC (stereo not drawn)	-10%	27%	-4%	-8%	7%
Cc1ccc(CCNC(=O)CS(=O)Cc2nc(-c3cccs3)oc2C)cc1 (stereo not drawn)	-10%	14µM*	-5%	2%	-2%
